Conditions: Tc-99m-labeled peptide

Substance	Radioactivity peaks in HPLC profile (structural stability and labeling purity)
Ac-KYCAREPPTRTFAYWGQG-NH2	two radioactivity peaks
KYCAREPPTRTFAYWGQG-NH2	a single radioactivity peak

Reference: patent US5770178A, “Metal chelate forming peptides and use thereof” (Nihon Medi-Physics Co., Ltd., priority 1994, dated 1998)
